Legend:
[1] = type: physicochemical
Description: We successfully expressed the recombinant protein in BL21 bacteria and further purified the protein using NiNTA columns (using the binding capacity of a 6×His tag located before the TAT tag) (FIG. 8B.). This recombinant protein is referred to herein alternatively as “P1-TAT” and “FLJ13639/P1-TAT.” The amino acid sequence of P1-TAT is provide as SEQ ID NO:5. The sequence of the DNA encoding P1-TAT is provided as SEQ ID NO:14. FLJ13639 P1 was cloned into the expression vector using the forward primer having the sequence 5′[…] (SEQ ID NO:15) and the reverse primer having the sequence 5′[…] (SEQ ID NO:16). The P1-TAT protein is soluble in buffer containing salts and glycerol, and is suitable for administration by injection following high-grade purification.

HL60 cells = assay: JC-1 mitochondrial membrane potential staining, fluorescence microscopy; type: cell-based; conditions: 20 ug of FLJP 1-TAT alone
Description: FIG. 14A is a graphical representation of green/red fluorescence intensity ratio data measured for treatment of HL60/VDR cells (a vinctrisin resistant cell line) as indicated for the x-axis. * indicates statistical significance.
Disruption of the mitochondrial membrane potential (Δψm) is an early event associated with apoptosis and may be one of several factors responsible for cytochrome c release (17, 18). Using JC-1 mitochondrial potential sensor (Molecular Probes, Inc) staining and fluorescence microscopy, we analyzed the Δψm in VCR (vincristin) treated HL60 cells. In healthy cells, the dye accumulates and aggregates in mitochondria, where it fluoresces bright red. In apoptotic cells, however, it cannot enter mitochondria if the Δψm is altered and fluoresces bright green as a cytoplasmic monomer. Therefore, mitochondria depolarization is indicated by a decrease of the red/green fluorescence intensity ratio.

B1: P1-TAT: recombinant FLJ13639/P1 protein in frame with HIV TAT protein transduction domain and 6×Histidine tag; amino acid sequence SEQ ID NO:5 (protein)
chain: MRGSHHHHHHGMASMTGGQQMGRDLYDDDDKDRWGSKLGYGRKKRRQRRRGGSTMSGYPYDVPDYAGSMAGTGLESLYRSVVWFAKGLREYTKSGYESACKDFVPHDLEVQIPGRVFLVTGGNSGIGKATALEIAKRGGTVHLVCRDQAPAEDARGEIIRESGNQNIFLHIVDLSDPKQIWKFVENFKQEHKLHVLINNAGCMVNKRELTEDGLEKNFAANTLGVYILTTGLIPVLEKEHDPRVITVSSGGMLVQKLNTNDLQSERTPFDGTMVYAQNKRQQVVLTERWAQGHPAIHFSSMHPGWADTPGVRQAMPGFHARFGDRLRSEAQGADTMLWLALSSAAAAQPSGRFFQDRKPVSTHLPLATASSSPAEEEKLIEILEQLAQTFK
Q: Which solubility [1] does the source give for B1 here?
A: soluble

Q: What about the green/red fluorescence ratio (HL60 cells) of the same molecule?
A: low green/red fluorescence ratio

Source: patent publication US20090042782A1, “Diagnostic and therapeutic strategies for conditions associated with the FLJ13639 gene” (priority 2005, published 2009)
